Measurements published in ChEMBL document CHEMBL1141893, “5-Lipoxygenase inhibition by N-hydroxycarbamates in dual-function compounds” (Bioorg Med Chem Lett, 2005).

Chains of the proteins cited; added tags and fusions are not shown.
UniProt P35367, whole entry: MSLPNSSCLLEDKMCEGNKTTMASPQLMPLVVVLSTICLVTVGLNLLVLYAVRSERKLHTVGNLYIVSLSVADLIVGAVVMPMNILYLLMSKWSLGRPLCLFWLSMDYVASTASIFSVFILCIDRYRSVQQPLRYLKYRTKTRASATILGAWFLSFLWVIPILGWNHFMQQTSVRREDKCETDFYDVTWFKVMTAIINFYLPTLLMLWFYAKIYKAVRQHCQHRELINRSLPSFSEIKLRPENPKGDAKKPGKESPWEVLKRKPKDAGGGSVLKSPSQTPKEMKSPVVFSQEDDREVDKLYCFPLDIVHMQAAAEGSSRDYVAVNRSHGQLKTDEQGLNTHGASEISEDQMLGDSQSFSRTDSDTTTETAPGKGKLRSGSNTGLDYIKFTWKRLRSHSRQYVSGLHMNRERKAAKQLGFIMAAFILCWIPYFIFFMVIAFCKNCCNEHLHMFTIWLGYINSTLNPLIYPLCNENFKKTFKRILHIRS

Target: Histamine H1 receptor (Homo sapiens, UniProt P35367)
Assay: Binding affinity for recombinant human Histamine H1 receptor expressed in CHO K1 cells
Assay type: cell-based

Ki: 3.63 nM
Compound: NC(=O)N(O)CCC#Cc1ccc(OCCCCN2CCN(C(c3ccc(F)cc3)c3ccc(F)cc3)CC2)cc1
